The record followed here is patent US20070213402A1, “Compounds which interact with the thyroid hormone receptor for the treatment of fibrotic disease” (priority 1998, published 2007).

For this assay, the target named is T1, glucocorticoid receptor (Homo sapiens, UniProt P04150).
T1 construct: expressed in transfected cells; host or cells: CV1 (transformed African Green Monkey kidney cell line)
T1 sequence (P04150 1-777): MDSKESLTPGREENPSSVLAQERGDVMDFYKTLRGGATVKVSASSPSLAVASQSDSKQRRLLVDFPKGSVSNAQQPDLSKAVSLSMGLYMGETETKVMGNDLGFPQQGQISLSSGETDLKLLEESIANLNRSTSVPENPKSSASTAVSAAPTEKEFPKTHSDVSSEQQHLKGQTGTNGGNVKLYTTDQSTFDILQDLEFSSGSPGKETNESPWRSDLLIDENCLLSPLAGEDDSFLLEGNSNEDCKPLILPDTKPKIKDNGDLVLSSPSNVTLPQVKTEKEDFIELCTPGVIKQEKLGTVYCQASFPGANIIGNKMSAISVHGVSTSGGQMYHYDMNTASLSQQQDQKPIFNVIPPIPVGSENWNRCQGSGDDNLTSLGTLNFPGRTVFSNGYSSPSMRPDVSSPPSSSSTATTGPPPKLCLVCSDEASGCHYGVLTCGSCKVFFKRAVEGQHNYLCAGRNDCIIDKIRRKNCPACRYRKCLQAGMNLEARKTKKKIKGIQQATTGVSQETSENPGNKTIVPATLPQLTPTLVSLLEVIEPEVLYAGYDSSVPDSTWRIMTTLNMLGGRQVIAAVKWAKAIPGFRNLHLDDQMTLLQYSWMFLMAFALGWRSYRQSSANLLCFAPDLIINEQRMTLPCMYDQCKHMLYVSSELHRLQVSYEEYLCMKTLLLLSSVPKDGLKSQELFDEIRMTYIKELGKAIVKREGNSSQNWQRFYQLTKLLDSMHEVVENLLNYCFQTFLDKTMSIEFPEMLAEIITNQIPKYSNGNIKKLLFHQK
In words: Experiment 2: PGL3MMTV-luciferase transactivation in CV1 cells with glucocorticoid receptor (GR1). The assay is classed as cell-based. The settings on record: substance alone at 10^-7M.

Each structure is given as a SMILES string.

Consider `C[C@@H]1C[C@H]2[C@@H]3CCC4=CC(=O)C=C[C@]4(C)[C@@]3(F)[C@@H](O)C[C@]2(C)[C@@]1(O)C(=O)CO` [Dex, dexamethazone, reference compound], for which the “Raw counts (GR1)” value is reported as 619085 counts. Also, the “% control (GR1)” value (Blank = 100) is 17346%.
